Measurements as given in ChEMBL document CHEMBL1268881, “Peripheral but crucial: a hydrophobic pocket (Tyr(706), Leu(337), and Met(336)) for potent and selective inhibition of neuronal nitric oxide synthase” (Bioorg Med Chem Lett, 2010).

Assay: Selectivity ratio of Ki for human nNOS to Ki for rat nNOS

Ratio Ki	SMILES
5.8	Nc1cccc(C[C@@H]2CNC[C@@H]2OCCNCCc2cccc(F)c2)n1
8.2	Nc1cccc(C[C@H]2CNC[C@H]2OCCNCCc2cccc(F)c2)n1
